Measurements from patent US12716050B2, “Two methods for preparing universal microbial medium by eutectic system-based cellulose liquefaction” (Xinjiang University, priority 2021, dated 2026).

Test: Screening of ionic liquids for dissolving microcrystalline cellulose
Format: physicochemical

Measured: Conclusion (dissolution effect of microcrystalline cellulose)

1-butyl-3-methylimidazolium borate
has a poor: No. 4: 10 g IL, 1 g microcrystalline cellulose, 90° C., co-heated | No. 5: 2 g IL, 1.5 g microcrystalline cellulose, 100° C., IL preheated | No. 6: 2 g IL, 1.5 g microcrystalline cellulose, 100° C., IL preheated | No. 7: 10 g IL, 6 g microcrystalline cellulose, 90° C., co-heated
